Reference: patent US20230173083A1, “ALBUMIN-BINDING PRODRUG FOR PREVENTING OR TREATING CANCER AND PHARMACEUTICAL COMPOSITION INCLUDING THE SAME” (KOREA INSTITUTE OF SCIENCE AND TECHNOLOGY, priority 2021, published 2023)

The chains behind the UniProt entries cited, without tags or fusion partners. Residues count along the entry.
UniProt P02768, 25-609: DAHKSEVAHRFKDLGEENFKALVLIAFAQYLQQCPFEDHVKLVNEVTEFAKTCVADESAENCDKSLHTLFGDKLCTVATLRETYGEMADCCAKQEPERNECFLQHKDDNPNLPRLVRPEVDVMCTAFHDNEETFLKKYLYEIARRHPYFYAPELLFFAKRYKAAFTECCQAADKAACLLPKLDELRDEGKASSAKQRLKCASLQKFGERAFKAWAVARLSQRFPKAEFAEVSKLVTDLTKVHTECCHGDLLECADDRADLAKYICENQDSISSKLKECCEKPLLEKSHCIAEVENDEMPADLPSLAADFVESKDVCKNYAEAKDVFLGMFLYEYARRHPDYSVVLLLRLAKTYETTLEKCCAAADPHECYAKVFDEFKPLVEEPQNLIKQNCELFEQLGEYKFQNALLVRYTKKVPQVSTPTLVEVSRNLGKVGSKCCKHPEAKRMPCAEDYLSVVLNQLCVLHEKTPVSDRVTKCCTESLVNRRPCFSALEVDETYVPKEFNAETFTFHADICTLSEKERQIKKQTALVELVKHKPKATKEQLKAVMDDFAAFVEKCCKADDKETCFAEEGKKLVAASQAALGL

Biological target: HSA (Homo sapiens, UniProt P02768)
Assay: Formation of albumin-prodrug conjugate with HSA (SDS-PAGE, MALDI-TOF, RP-HPLC)
Assay type: binding
Conditions: 1% HSA in PBS, room temperature, 1 h
Method: To this end, a PBS solution (1 ml) containing 1% albumin (HSA, MSA or BSA) or 1% blocked albumin (blocked HSA, MSA or BSA) was added to 1 mg of the prodrug (Al-ProD) synthesized in Example 1 and incubated at room temperature for various times (0 h, 5 min, and 1 h). After completion of the incubation, samples were analyzed via SDS-PAGE and MALDI-TOF mass spectrometry.
τ-maleimido butyric acid was added to 1% albumin (HSA, MSA or BSA) for 1 h to block the thiol group of the albumin. In the “Blocking” row in the table of FIG. 5, the plus signs (+) represent the use of blocked albumin.

Question: For COc1cccc2c1C(=O)c1c(O)c3c(c(O)c1C2=O)C[C@@](O)(C(=O)CO)C[C@@H]3O[C@H]1C[C@H](N)[C@H](O)[C@H](C)O1 [free DOX, doxorubicin, reference compound], which “formation of conjugate with HSA (SDS-PAGE band shift to 50-75 kDa)” value is on record?
Answer: did not form conjugates with any albumin
